Experimental data from patent publication US12145964B2, “Thiophosphorodichloridate reagents for chemoselective histidine bioconjugation” (dated 2024).

Amino acid sequences for entries named in this document (tags omitted). Residues count along the entry.
UniProt P61823, 27-150 limits assumed: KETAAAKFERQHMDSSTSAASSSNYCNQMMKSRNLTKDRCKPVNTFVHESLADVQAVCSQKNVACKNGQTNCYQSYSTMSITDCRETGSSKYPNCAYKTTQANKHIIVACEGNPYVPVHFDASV
UniProt P68082, whole entry, looked up: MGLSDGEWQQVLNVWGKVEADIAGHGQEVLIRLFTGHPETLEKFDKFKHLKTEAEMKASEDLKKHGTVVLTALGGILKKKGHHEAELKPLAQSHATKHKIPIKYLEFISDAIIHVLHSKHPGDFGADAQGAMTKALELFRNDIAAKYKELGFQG
UniProt P00698, 19-147 limits assumed: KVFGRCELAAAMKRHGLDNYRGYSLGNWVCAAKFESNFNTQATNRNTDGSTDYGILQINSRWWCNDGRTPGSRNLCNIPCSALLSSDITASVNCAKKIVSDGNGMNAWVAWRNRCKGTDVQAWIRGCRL

Key:
[1] = Reaction between phosphorus electrophiles and Fmoc-His-OH; details: for Labeling of Fmoc-His-OH: buffered aqueous solution, 0.5 mM Fmoc-His-OH, 5 mM electrophile, 25 mM HEPES pH 8.5, 20% MeCN, 1h; for Hydrolysis of the resulting histidine product: prolonged incubation at neutral pH
His-tag GFP = experiment: TPAC labelling of His-tag GFP (blots, LC-MS); details: GFP with N-terminal 10×His tag
ribonuclease A [2] = molecular target: T1, ribonuclease A (Bos taurus, UniProt P61823); experiment: Activity of ribonuclease A after TPAC treatment
[3] = Reaction of TPAC with mixture of Fmoc-protected amino acids; details: competing Fmoc-protected amino acids, 3 mM TPAC, pH 8.5
myoglobin = myoglobin (Equus caballus, UniProt P68082); experiment: Protein labelling with TPAC, site selectivity
lysozyme = lysozyme (Gallus gallus, UniProt P00698); experiment: Protein labelling with TPAC, site selectivity; details: pH 8.5
calmodulin = calmodulin (Sus scrofa, UniProt F2Z5G3); experiment: Protein labelling with TPAC, site selectivity
[4] = TPAC labeling in HeLa lysates, in-gel fluorescence
ribonuclease A [5] = molecular target: T1, ribonuclease A; experiment: Protein labelling with TPAC, intact mass spectrometry; details: pH 8.5, 20 μM protein, 2 mM TPAC, 1 h
[6] = Stability of TPAC-labelled Fmoc-His-OH (hydrolysis, HPLC)

In the case of `[N-]=[N+]=NCCOP(=S)(Cl)Cl`, the “Labeling of Fmoc-His-OH” value [1] is reported as “comparable reactivity”.

In the case of `C#CCOP(=S)(Cl)Cl`, the “Site of labelling on His-tag GFP” value (His-tag GFP) is reported as “selectively reacts with histidine residues on the His-tag”, the “Loss of activity of ribonuclease A after TPAC treatment” value (ribonuclease A [2]) is reported as “negligible loss of activity” and the “Hydrolysis of the reagent itself” value ([1]; aqueous buffer) is reported as “fast hydrolysis”. For the same compound, the “Labeling of Fmoc-His-OH” value [1] was “higher conversion”, the Yield of bioconjugate ([1]; pH 8.5, within twenty minutes) was 60% and the “Hydrolysis of the resulting histidine product” value [1] was “resistant to hydrolysis”. For the same compound, the “Reactivity on other nucleophilic amino acids” value [3] was “negligible reactivity”, the “Histidine selectivity of labelling” value (myoglobin) was “excellent histidine selectivity” and the Side-reactivity towards lysine (lysozyme) was “Modest side-reactivity towards lysine”. The “Histidine selectivity of labelling” value (calmodulin) was “excellent histidine selectivity”, the “Labeling in lysates; effect of pretreatment with electrophiles blocking cysteine, lysine or serine” value [4] was “do not affect the observed TPAC signal” and the Doubly-modified protein (ribonuclease A [5]) was 11%. The Singly-modified protein (ribonuclease A [5]) was “ca. 45%”.

For `C#CCOP(=S)(Cl)OC` (centres unmarked), the “Labeling of Fmoc-His-OH” value [1] was “appreciable labeling” and the “Hydrolysis of the resulting histidine product” value [1] was “significant hydrolysis”.

For `C#CC(C)OP(=S)(Cl)Cl` (racemic), the “Labeling of Fmoc-His-OH” value [1] was “comparable reactivity”.

Work on `C#CCOP(O)(=S)n1cnc(C[C@H](NC(=O)OCC2c3ccccc3-c3ccccc32)C(=O)O)c1` (some centres unmarked) yielded a Hydrolysis ratio ([6]; Dithiothreitol (5 mM), 65 °C, 0.5 h, in PBS) of 1%, a Hydrolysis ratio ([6]; Formic acid (1M), 25 °C, 1 h, in water) of 1% and a Hydrolysis ratio ([6]; Formic acid (1M), 25 °C, 14 h, in water) of 15%. It also gave a Hydrolysis ratio ([6]; HCl (0.2M), 25 °C, 1 h, in water) of less than 1%, a Hydrolysis ratio ([6]; HCl (0.2M), 25 °C, 14 h, in water) of 20 and a Hydrolysis ratio ([6]; Iodoacetamide (10 mM), 37 °C, 1 h, in PBS) of 2%. It also gave a Hydrolysis ratio ([6]; NH3 · H2O (1M), 25 °C, 1 h, in water) of less than 1%, a Hydrolysis ratio ([6]; NH3 · H2O (1M), 25 °C, 14 h, in water) of less than 1% and a Hydrolysis ratio ([6]; TCEP (5 mM), 65 °C, 0.5 h, in PBS) of less than 1%.
